{"sequences": {"note": "By UniProt entry, the sequences of proteins in these tests, tags left out.", "UniProt P05866, whole entry": "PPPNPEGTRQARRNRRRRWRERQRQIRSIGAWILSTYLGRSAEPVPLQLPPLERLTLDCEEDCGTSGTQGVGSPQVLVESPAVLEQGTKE"}, "source": "PubChem BioAssay AID704", "about": "(The Scripps Research Institute Molecular Screening Center, 2007)", "note": "Only a part is listed here, and it is no random draw. Some results for these compounds are left out of this collection, so the calls shown say nothing about other tests. Active and inactive are the calls of the source.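 Rule for the calls: active = inhibition above the screen-wide mean plus 3 SD (cut at about 35% in these data); inactive = the rest.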", "data": [{"molecular_target": "Protein Rev (Human immunodeficiency virus type 1 group M subtype B (isolate WMJ22)) (UniProt P05866)", "experiment": "HIV-1 Rev-RRE binding inhibitors, primary screen, biochemical, FRET, protein-RNA interaction (AID 704);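 note: 0% = median DMSO wells and 100% = median Neomycin B control wells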", "conditions": "Rev peptide-RRE RNA binding, at 8 µM, stronger effect = higher value", "summary_of_the_method": "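Test system – labelled RRE RNA duplex and labelled Rev peptide · Signal – fluorescein-to-Cy5 FRET, 480 nm excitation · Evaluation – % inhibition of FRET ratio versus controls · Benchmarks – DMSO low control, neomycin B high control · Incubation – 5 min RNA-compound premix plus 15 min binding step, 25 °C · Medium – HEPES pH 7.5 salt buffer with EDTA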", "values": [{"smiles": "CC(C)N1C(=O)CC2(CCN(CCOC(=O)C(O)(c3ccccc3)c3ccccc3)CC2)C1=O", "inhibition": "inactive: 4.32%"}, {"smiles": "CN(C)c1cccc(C(=O)NCC2(N(C)C)CCCCC2)c1", "inhibition": "inactive: 6.25%"}, {"smiles": "O=C(OC1CN2CCC1CC2)C(CO)(c1ccccc1)c1ccccc1", "note": "(stereo not drawn)", "inhibition": "inactive: -7.72%"}]}]}
